# Assay: Solubility of cerium compound in simulated gastric fluid (appearance and absorbance)
# Conditions: 0.05 M cerium in simulated gastric fluid (pH ca. 1.2), inversion mixing at room temperature about one hour
row,Substance,appearance of measurement sample in simulated gastric fluid
1,cerium(III) chloride heptahydrate [cerium chloride],clear liquids without visually observable precipitate
2,cerium(III) nitrate [cerium nitrate],clear liquids without visually observable precipitate

# — patent EP4653003A1, “PHARMACEUTICAL COMPOSITION HAVING CERIUM COMPOUND CONTAINING TRIVALENT CERIUM AS ACTIVE INGREDIENT” (Applause Pharma Co., Ltd., priority 2023, dated 2024)
